From PMC10958117, “G-site residue S67 is involved in the fungicide-degrading activity of a tau class glutathione S-transferase from Carica papaya” (The Journal of Biological Chemistry, 2024)

Amino acid sequences for entries named in this document (tags omitted). Residues count along the entry.
UniProt O49821, 1-218: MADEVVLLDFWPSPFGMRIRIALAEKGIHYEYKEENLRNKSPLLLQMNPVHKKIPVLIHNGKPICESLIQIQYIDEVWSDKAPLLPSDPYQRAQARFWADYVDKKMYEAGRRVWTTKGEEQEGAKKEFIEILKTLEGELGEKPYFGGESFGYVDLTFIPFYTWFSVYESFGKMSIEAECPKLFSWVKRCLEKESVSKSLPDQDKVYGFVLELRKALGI

Target: tau class glutathione S-transferase from Carica papaya (TCpGST) (Carica papaya, UniProt O49821)
Assay: inhibition of TCpGST-catalyzed thiram degradation, HPLC

For O=[N+]([O-])c1ccc(Cl)c2nonc12, which IC50 is on record?
Its IC50 is 320 µM.
